Test results: patent US20150147342A1 (published 2015)

Chains of the proteins cited; added tags and fusions are not shown. A line that says so, or that is headed by a name, gives the form on record, which may keep a tag or linker.
Dimeric fibrinogen-like domain of mouse (Mus musculus) Ang-2 conjugated to human IgG1, one chain, as listed by the source limits assumed: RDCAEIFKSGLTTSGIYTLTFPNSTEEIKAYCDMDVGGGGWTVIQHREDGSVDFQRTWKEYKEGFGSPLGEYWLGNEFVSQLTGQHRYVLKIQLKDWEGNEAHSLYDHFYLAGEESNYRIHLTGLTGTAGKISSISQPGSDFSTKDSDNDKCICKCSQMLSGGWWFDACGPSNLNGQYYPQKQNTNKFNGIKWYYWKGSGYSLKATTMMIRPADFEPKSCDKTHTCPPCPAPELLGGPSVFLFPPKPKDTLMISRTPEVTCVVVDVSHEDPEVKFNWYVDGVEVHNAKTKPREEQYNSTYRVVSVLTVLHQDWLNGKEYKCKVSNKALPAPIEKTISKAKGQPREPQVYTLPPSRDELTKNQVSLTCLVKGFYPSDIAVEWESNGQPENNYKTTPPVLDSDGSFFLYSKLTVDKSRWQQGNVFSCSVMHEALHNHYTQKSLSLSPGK

Target: T1, Dimeric fibrinogen-like domain of mouse (Mus musculus) Ang-2 conjugated to human IgG1 (mouse (Mus musculus))
T1 construct: also called Dimeric Mouse Ang-2FD; Mouse Ang-2FD-hFc
Experiment: SPR, hIgG1 antibody captured, room temp

B1: H1H744N (antibody, V domains shown)
VH: QVQLVQSGVEVKKPGASVKVSCKTSGYTFSNNGFSWVRQAPGQGLEWLGWISGYNGNTNYAQKFQGRVTMTTDTSTSTAYMELRTLRSDDTAVYYCARDQDYSNFHWLDPWGQGTLVTVAS
VL: DIQMTQSPSSVSASVGDRVIITCRASQGLSSWLAWYQQKPGTAPKLLIHSASSLQTGVPSRFSGSGSGTEFALTINSLQPEDFGTYYCQQANSFPLTFGGGTRVEIK
Kd: 0.158 nM
